The results in this text go back to ChEMBL document CHEMBL1126090, “Electrophilic opioid ligands. Oxygen tethered alpha-methylene-gamma-lactone, acrylate, isothiocyanate, and epoxide derivatives of 6 beta-naltrexol” (J Med Chem, 1992).

Amino acid sequences for entries named in this document (tags omitted). A change or cut given only in a name is not applied to a line headed by its entry.
UniProt P41143, whole entry, looked up: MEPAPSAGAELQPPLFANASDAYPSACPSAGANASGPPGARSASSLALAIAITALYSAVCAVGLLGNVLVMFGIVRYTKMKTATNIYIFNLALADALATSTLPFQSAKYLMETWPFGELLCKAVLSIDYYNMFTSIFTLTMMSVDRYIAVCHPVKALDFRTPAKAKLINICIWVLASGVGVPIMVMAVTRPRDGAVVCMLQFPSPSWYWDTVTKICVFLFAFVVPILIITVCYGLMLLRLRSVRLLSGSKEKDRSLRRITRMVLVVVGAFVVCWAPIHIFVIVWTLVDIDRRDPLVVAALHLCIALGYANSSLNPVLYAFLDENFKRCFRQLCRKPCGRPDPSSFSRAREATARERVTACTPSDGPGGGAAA
UniProt P97266, whole entry, looked up: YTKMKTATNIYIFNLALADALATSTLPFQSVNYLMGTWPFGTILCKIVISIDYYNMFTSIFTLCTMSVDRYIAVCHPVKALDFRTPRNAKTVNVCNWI
UniProt P41145: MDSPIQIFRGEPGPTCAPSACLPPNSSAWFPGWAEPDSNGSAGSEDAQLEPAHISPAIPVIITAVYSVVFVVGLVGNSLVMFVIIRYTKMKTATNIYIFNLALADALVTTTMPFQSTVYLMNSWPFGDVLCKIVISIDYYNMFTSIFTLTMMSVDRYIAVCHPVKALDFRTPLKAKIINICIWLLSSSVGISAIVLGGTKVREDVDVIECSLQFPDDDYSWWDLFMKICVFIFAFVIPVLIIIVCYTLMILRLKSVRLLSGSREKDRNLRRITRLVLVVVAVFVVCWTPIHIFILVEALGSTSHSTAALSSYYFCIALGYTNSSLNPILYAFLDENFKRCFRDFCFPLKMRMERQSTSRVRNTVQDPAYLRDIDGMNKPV
UniProt P35372, whole entry, looked up: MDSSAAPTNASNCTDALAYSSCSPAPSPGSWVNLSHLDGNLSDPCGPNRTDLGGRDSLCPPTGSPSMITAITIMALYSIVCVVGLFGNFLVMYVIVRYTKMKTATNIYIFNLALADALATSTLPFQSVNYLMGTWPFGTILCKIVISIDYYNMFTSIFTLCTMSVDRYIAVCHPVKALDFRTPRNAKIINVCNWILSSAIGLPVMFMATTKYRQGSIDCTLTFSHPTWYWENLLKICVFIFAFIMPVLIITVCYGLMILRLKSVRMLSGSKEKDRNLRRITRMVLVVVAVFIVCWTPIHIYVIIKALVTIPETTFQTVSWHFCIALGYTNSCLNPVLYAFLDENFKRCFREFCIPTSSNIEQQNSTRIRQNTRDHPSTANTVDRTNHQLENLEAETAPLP

In test [1] the target is Delta-type opioid receptor (Homo sapiens) (UniProt P41143). Kind of test: Compound was evaluated for the percent recovery of 1.0 nM of [3H]- DPDPE binding to Opioid receptor delta 1 in guinea pig brain membranes at 4(nM) concentration protection by 1 uM Naloxone. The conditions noted are these: Cavia porcellus, Membrane.
Test [2] concerns the target Mu-type opioid receptor (Cavia porcellus) (UniProt P97266). Kind of test: Compound was evaluated for the percent recovery of 1.0 nM of [3H]- DAGO binding to mu opioid receptor in washed guinea pig brain membranes at 10(nM) concentration. The settings on record: Membrane.
Test [3] addresses T1, Opioid receptors; mu/kappa/delta (Homo sapiens) (UniProt P41145+P41143+P35372). Kind of test: Compound was evaluated for the percent recovery of 0.5 nM of [3H]- bremazocine binding to total opioid receptor in guinea pig brain membranes at 20 (nM) concentration protection by 1 uM Naloxone. The settings on record: Cavia porcellus, Membrane.
The target of test [4] is Mu-type opioid receptor (Cavia porcellus) (UniProt P97266). Kind of test: Compound was evaluated for the percent recovery of 1.0 nM of [3H]- DAGO binding to opioid receptor mu in un washed guinea pig brain membranes at 10 (nM) concentration. The conditions noted are these: Membrane.
In test [5] the target is T1, Opioid receptors; mu/kappa/delta (Homo sapiens). Kind of test: Compound was evaluated for the percent recovery of 0.5 nM of [3H]- bremazocine binding to of total opioid receptor in washed guinea pig brain membranes at 20 (nM) concentration of the compound. The conditions noted are these: Cavia porcellus, Membrane.
The target in test [6] is Delta-type opioid receptor (Homo sapiens) (UniProt P41143). Kind of test: Compound was evaluated for the percent recovery of 1.0 nM of [3H]- DPDPE binding to Opioid receptor delta 1 in washed guinea pig brain membranes at 4(nM) concentration. The conditions noted are these: Cavia porcellus, Membrane.
The target is the same in test [7]. Kind of test: Compound was evaluated for the percent recovery of 1.0 nM of [3H]- DPDPE binding to Opioid receptor delta 1 in un washed guinea pig brain membranes at 4(nM) concentration. The conditions noted are these: Cavia porcellus, Membrane.
Test [8] concerns the target T1, Opioid receptors; mu/kappa/delta (Homo sapiens). Kind of test: Compound was evaluated for the percent recovery of 0.5 nM of [3H]- bremazocine binding to of total opioid receptor in unwashed guinea pig brain membranes at 20(nM) concentration of the compound. The conditions noted are these: Cavia porcellus, Membrane.

In the case of `C=C(CO[C@@H]1CC[C@@]2(O)[C@H]3Cc4ccc(O)c5c4[C@@]2(CCN3CC2CC2)[C@H]1O5)C(=O)OC`, the % recovery came to 97 in test [1]; 59 in test [2]; 90 in test [3]; 21 in test [4]; 60 in test [5]; 42 in test [6]. Also, the figures for the % recovery in test [7] and in test [8] were 5 and 35, respectively.
